Laboratory results reported in PMC5030486, “Neprilysin is a Mediator of Alternative Renin-Angiotensin-System Activation in the Murine and Human Kidney” (Scientific Reports, 2016).

Biological target: T1, NEP (Mus musculus, UniProt Q61391)
T1 sequence (Q61391 1-750): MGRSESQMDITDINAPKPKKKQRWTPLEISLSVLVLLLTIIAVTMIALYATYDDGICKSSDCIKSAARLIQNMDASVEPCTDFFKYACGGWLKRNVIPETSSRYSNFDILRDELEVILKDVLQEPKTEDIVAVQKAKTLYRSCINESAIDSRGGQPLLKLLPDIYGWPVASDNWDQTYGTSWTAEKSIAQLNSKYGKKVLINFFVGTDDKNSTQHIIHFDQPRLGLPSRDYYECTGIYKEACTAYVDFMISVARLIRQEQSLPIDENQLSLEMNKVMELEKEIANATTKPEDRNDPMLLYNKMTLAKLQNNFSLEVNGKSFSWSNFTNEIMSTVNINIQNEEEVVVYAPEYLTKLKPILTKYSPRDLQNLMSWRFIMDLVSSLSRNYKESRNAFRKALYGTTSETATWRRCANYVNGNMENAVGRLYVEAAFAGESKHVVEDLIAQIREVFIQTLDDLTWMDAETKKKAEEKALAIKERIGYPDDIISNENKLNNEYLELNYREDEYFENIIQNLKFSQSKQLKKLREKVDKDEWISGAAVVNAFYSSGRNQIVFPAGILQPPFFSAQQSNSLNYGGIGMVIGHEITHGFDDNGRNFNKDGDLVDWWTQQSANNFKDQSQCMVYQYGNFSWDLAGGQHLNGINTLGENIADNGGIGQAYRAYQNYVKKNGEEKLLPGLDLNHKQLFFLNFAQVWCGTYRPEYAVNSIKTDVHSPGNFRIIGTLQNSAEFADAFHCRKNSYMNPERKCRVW
Experiment: MALDI-Imaging of Ang I to Ang-(1-7) turnover in murine kidney cryo-sections
Settings: murine kidney slices incubated with Ang I, DL-thiorphan 0 μM – 100 μM

In the case of O=C(O)CNC(=O)C(CS)Cc1ccccc1 (racemic) [DL-thiorphan], the “Ang-(1-7) signal in renal cortex with increasing inhibitor concentration” value is reported as “dose-depended DL-thiorphan-sensitive Ang-(1-7) signal”.
